Data on one substance can be found in patent publication US6627452B1, “Method for screening drug preparations” (priority 1999, dated 2003).

For assay [1], the system named is chronic viral hepatitis B. The assay is described as follows: Reaferon treatment of patient, Example 6. The assay is classed as in vivo, human. To be noted: 10^6 U intramuscularly each third day for 6 months. The source says:
Patient K-n A. V. Diagnosis: chronic viral hepatitis B with no delta-agent (virus). […] A course of treatment with Reaferon administered intramuscularly at the dose of 10^6 U each third day for 6 months was provided. The treatment was associated with the normalization of ALT and AST activities, reversal of HBV DNA, HBeAg, and HBsAg, and a stable remission lasted for 8 months.

Assay [2] concerns cell fraction of patient's cultured blood. Nature of the assay: -SH/-SS ratio in the cell fraction of patient's cultured whole heparinized blood (amperometric titration). The assay is classed as cell-based, human.

As to “Reaferon: Reaferon (NPO Vector, Russia), dosed in 10^6 U”, in assay [1], the “ALT and AST activities” value is “normalization”. For the same substance, in assay [1], the “HBV DNA, HBeAg, and HBsAg” value was “reversal”. Moreover, in assay [1], the “duration of stable remission” value is listed as 8 months. The “-SH/-SS ratio” value in assay [2] (Example 2 patient, transverse colon cancer T4N2M1, dosage 0.5 x 10^6 U (in vitro 1:5000), control 1.17) amounted to 1.25; in assay [2] (Example 2 patient, transverse colon cancer T4N2M1, dosage 1.0 x 10^6 U (in vitro 1:5000), control 1.17), 1.50; in assay [2] (Example 2 patient, transverse colon cancer T4N2M1, dosage 3.0 x 10^6 U (in vitro 1:5000), control 1.17) it was 1.08; in assay [2] (Example 2 patient, transverse colon cancer T4N2M1, dosage 6.0 x 10^6 U (in vitro 1:5000), control 1.17), 1.03; in assay [2] (Example 6 patient, chronic viral hepatitis B, dosage 0.5 x 10^6 U (in vitro 1:5000), control 1.52) it was 2.53; in assay [2] (Example 6 patient, chronic viral hepatitis B, dosage 1.0 x 10^6 U (in vitro 1:5000), control 1.52), 3.07. Besides, the “-SH/-SS ratio” value is 2.14 in assay [2] (Example 6 patient, chronic viral hepatitis B, dosage 3.0 x 10^6 U (in vitro 1:5000), control 1.52) and 1.79 in assay [2] (Example 6 patient, chronic viral hepatitis B, dosage 6.0 x 10^6 U (in vitro 1:5000), control 1.52).
